Measurements: patent US10280198B2, “Therapeutic agents for reducing parathyroid hormone levels” (KAI PHARMACEUTICALS, INC., priority 2009, dated 2019)

Tested on: rat peritoneal mast cells
Experiment: In vitro histamine induction in rat peritoneal mast cells
Format: cell-based
Conditions: Table 9, 15 minutes, 37° C.
Method: To further evaluate the relationship between compound structure and histamine release, a series of compounds was prepared and assessed for their ability to trigger induction of histamine in an in vitro assay using rat peritoneal mast cells. In this assay, compounds are incubated at 10 μM for 15 minutes at 37° C. with cells isolated from peritoneal lavage of SD rats. Following incubation, cell medium is collected and histamine is determined.
Accordingly, and as can be appreciated in view of the PTH data and the histamine data described hereinabove, in one embodiment, a compound that has activity to decrease PTH level in a subject in the absence of a histamine response is contemplated. In certain embodiments, absence of a histamine response intends a dose of the compound that produces a less than 10-fold, more preferably 8-fold, still more preferably 5-fold, and even still more preferably 3-fold, increase in histamine, measured in vitro in an assay as described herein, where the fold change is determined based on histamine levels before incubation with the compound and after 15 minutes incubation with compound. […] Cell supernatant was analyzed for histamine using histamine EIA kit (Cayman #589651). […]

| Substance | Histamine in vitro Fold change of non-treated at 10 uM [fold] |
| --- | --- |
| Ac-ca(DAP)rrar-NH2 [SEQ ID NO: 153] | 1.6 |
| Ac-carrr-Nle-r-NH2 [SEQ ID NO: 129] | 2.6 |
